The results in this text go back to patent publication US20250195530A1, “POLQ INHIBITORS” (ASTRAZENECA AB, priority 2022, published 2025).

Chains of the proteins cited; added tags and fusions are not shown. Residues count along the entry.
UniProt O75417, 1780-2590: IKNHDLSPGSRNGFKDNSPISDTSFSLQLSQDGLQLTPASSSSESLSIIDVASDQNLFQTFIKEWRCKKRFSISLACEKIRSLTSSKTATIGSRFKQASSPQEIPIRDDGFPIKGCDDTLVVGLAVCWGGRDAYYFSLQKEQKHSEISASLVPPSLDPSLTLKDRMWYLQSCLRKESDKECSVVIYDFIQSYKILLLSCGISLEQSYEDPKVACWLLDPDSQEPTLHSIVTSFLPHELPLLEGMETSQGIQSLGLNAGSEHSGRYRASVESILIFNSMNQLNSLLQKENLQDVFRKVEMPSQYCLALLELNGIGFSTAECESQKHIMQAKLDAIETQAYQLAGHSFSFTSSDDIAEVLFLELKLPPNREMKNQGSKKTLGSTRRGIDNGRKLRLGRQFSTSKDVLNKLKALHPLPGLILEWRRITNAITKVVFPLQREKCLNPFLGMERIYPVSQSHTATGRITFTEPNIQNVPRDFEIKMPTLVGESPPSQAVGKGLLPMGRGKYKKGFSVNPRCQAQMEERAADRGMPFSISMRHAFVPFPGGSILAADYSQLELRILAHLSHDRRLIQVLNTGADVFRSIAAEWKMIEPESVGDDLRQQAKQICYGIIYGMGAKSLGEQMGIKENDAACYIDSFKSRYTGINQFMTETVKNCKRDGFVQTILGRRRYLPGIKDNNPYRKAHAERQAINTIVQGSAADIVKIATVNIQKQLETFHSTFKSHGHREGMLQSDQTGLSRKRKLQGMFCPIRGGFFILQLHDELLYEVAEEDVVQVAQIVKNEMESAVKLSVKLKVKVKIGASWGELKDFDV

This assay concerns the target isolated polymerase domain (I1780-V2590) of DNA polymerase theta (Polθ) (Homo sapiens (Human), UniProt O75417).

As to `CC(=O)N1CCN(CCOc2cccc(-c3nc4c(OC5(C)CC5)ncnc4n3Cc3ccccc3)c2Cl)CC1` [Example D8, 1-(4-(2-(3-(9-benzyl-6-(1-methylcyclopropoxy)-9H-purin-8-yl)-2-chlorophenoxy)ethyl)piperazin-1-yl)ethan-1-one], the IC50 – broadly, the concentration at which inhibition is half-maximal – is 2 nM.

In the case of `CN1CCC(Oc2cccc(-c3nc4c(OC5(C)CC5)ncnc4n3Cc3ccccc3)c2Cl)CC1` [Example D9, 9-benzyl-8-(2-chloro-3-((1-methylpiperidin-4-yl)oxy)phenyl)-6-(1-methylcyclopropoxy)-9H-purine], 2.51 nM corresponded to half-maximal inhibition (IC50). The IC50 values of the last two compounds are within 1.5-fold of each other. The figure for `CC1(Oc2ncnc3c2nc(-c2cccc(OCCN4CCNCC4)c2Cl)n3Cc2ccccc2)CC1` [Example D10, 9-benzyl-8-(2-chloro-3-(2-(piperazin-1-yl)ethoxy)phenyl)-6-(1-methylcyclopropoxy)-9H-purine] is 2 nM; for `CC1(Oc2ncnc3c2nc(-c2cccc(OC4CCNCC4)c2Cl)n3Cc2ccccc2)CC1` [Example D11, 9-benzyl-8-(2-chloro-3-(piperidin-4-yloxy)phenyl)-6-(1-methylcyclopropoxy)-9H-purine] it is 2.51 nM; for `CN1CCN(CCOc2cccc(-c3nc4c(OC5(C)CC5)ncnc4n3Cc3ccccc3)c2Cl)CC1` [Example D12, 9-benzyl-8-(2-chloro-3-(2-(4-methylpiperazin-1-yl)ethoxy)phenyl)-6-(1-methylcyclopropoxy)-9H-purine] it is 2 nM. The figure for `CC1(Oc2ncnc3c2nc(-c2ccc(OCCN4CCNC(=O)C4)cc2Cl)n3Cc2ccccc2)CC1` [Example D15, 4-(2-(4-(9-benzyl-6-(1-methylcyclopropoxy)-9H-purin-8-yl)-3-chlorophenoxy)ethyl)piperazin-2-one] is 3.16 nM.

In the case of `CC1(Oc2ncnc3c2nc(-c2ccc(OC[C@H]4CCN4)cc2Cl)n3Cc2ccccc2)CC1` [Example D16, (R)-8-(4-(azetidin-2-ylmethoxy)-2-chlorophenyl)-9-benzyl-6-(1-methylcyclopropoxy)-9H-purine], the IC50 was 2.51 nM. In turn, `CC1(Oc2ncnc3c2nc(-c2ccc(O[C@H]4CCNC4)cc2Cl)n3Cc2ccccc2)CC1` [Example D17, (S)-9-benzyl-8-(2-chloro-4-(pyrrolidin-3-yloxy)phenyl)-6-(1-methylcyclopropoxy)-9H-purine] showed an IC50 of 5.01 nM. `CC1(Oc2ncnc3c2nc(-c2ccc(OCCCN4CCNCC4)cc2Cl)n3Cc2ccccc2)CC1` [Example D18, 9-benzyl-8-(2-chloro-4-(3-(piperazin-1-yl)propoxy)phenyl)-6-(1-methylcyclopropoxy)-9H-purine] showed an IC50 of 2.51 nM. The figure for `CC1(Oc2ncnc3c2nc(-c2ccc(OCC4(F)CNC4)cc2Cl)n3Cc2ccccc2)CC1` [Example D19, 9-benzyl-8-(2-chloro-4-((3-fluoroazetidin-3-yl)methoxy)phenyl)-6-(1-methylcyclopropoxy)-9H-purine] is 2.51 nM; for `CN(C)C(=O)COc1ccc(-c2nc3c(OC4(C)CC4)ncnc3n2Cc2ccccc2)c(Cl)c1` [Example D20, 2-(4-(9-benzyl-6-(1-methylcyclopropoxy)-9H-purin-8-yl)-3-chlorophenoxy)-N,N-dimethylacetamide] it is 3.98 nM. With `CNC(=O)COc1ccc(-c2nc3c(OC4(C)CC4)ncnc3n2Cc2ccccc2)c(Cl)c1` [Example D21, 2-(4-(9-benzyl-6-(1-methylcyclopropoxy)-9H-purin-8-yl)-3-chlorophenoxy)-N-methylacetamide] the figure was 5.01 nM. With `CC(=O)N1CCN(CCCOc2ccc(-c3nc4c(OC5(C)CC5)ncnc4n3Cc3ccccc3)c(Cl)c2)CC1` [Example D22, 1-(4-(3-(4-(9-benzyl-6-(1-methylcyclopropoxy)-9H-purin-8-yl)-3-chlorophenoxy)propyl)piperazin-1-yl)ethan-1-one] the figure was 3.98 nM; with `CC1(Oc2ncnc3c2nc(-c2ccc(OCCN)cc2Cl)n3Cc2ccccc2)CC1` [Example D23, 2-(4-(9-benzyl-6-(1-methylcyclopropoxy)-9H-purin-8-yl)-3-chlorophenoxy)ethan-1-amine], 5.01 nM; with `CC1(Oc2ncnc3c2nc(-c2ccc(OCC(=O)O)cc2Cl)n3Cc2ccccc2)CC1` [Example D24, 2-(4-(9-benzyl-6-(1-methylcyclopropoxy)-9H-purin-8-yl)-3-chlorophenoxy)acetic acid], 10 nM. Turning to `CC1(Oc2ncnc3c2nc(-c2ccc(OC[C@H]4CCCN4)cc2Cl)n3Cc2ccccc2)CC1` [Example D25, (R)-9-benzyl-8-(2-chloro-4-(pyrrolidin-2-ylmethoxy)phenyl)-6-(1-methylcyclopropoxy)-9H-purine], the IC50 is 6.31 nM. The figure for `CC1(Oc2ncnc3c2nc(-c2ccc(OCCNC(=O)CO)cc2Cl)n3Cc2ccccc2)CC1` [Example D26, N-(2-(4-(9-benzyl-6-(1-methylcyclopropoxy)-9H-purin-8-yl)-3-chlorophenoxy)ethyl)-2-hydroxyacetamide] is 5.01 nM; for `CC1(Oc2ncnc3c2nc(-c2ccc(OCC(N)=O)cc2Cl)n3Cc2ccccc2)CC1` [Example D27, 2-(4-(9-benzyl-6-(1-methylcyclopropoxy)-9H-purin-8-yl)-3-chlorophenoxy)acetamide] it is 7.94 nM; for `CC1(Oc2ncnc3c2nc(-c2ccc(OCC(=O)NCCO)cc2Cl)n3Cc2ccccc2)CC1` [Example D28, 2-(4-(9-benzyl-6-(1-methylcyclopropoxy)-9H-purin-8-yl)-3-chlorophenoxy)-N-(2-hydroxyethyl)acetamide] it is 3.98 nM. Turning to `CC1(Oc2ncnc3c2nc(-c2ccc(OCCNCC(=O)O)cc2Cl)n3Cc2ccccc2)CC1` [Example D29, (2-(4-(9-benzyl-6-(1-methylcyclopropoxy)-9H-purin-8-yl)-3-chlorophenoxy)ethyl)glycine], the IC50 is 10 nM. Compared with the last compound, the IC50 is about 2.5-fold higher. With `CN(CCOc1ccc(-c2nc3c(OC4(C)CC4)ncnc3n2Cc2ccccc2)c(Cl)c1)CC(=O)O` [Example D30, N-(2-(4-(9-benzyl-6-(1-methylcyclopropoxy)-9H-purin-8-yl)-3-chlorophenoxy)ethyl)-N-methylglycine] the figure was 3.98 nM; with `CC1(Oc2ncnc3c2nc(-c2ccc(O[C@H]4CNC[C@H]4F)cc2Cl)n3Cc2ccccc2)CC1` [Example D31, 9-benzyl-8-(2-chloro-4-(((3S,4R)-4-fluoropyrrolidin-3-yl)oxy)phenyl)-6-(1-methylcyclopropoxy)-9H-purine], 7.94 nM; with `CC1(Oc2ncnc3c2nc(-c2ccc(O[C@@H]4CCCNC4)cc2Cl)n3Cc2ccccc2)CC1` [Example D32, (R)-9-benzyl-8-(2-chloro-4-(piperidin-3-yloxy)phenyl)-6-(1-methylcyclopropoxy)-9H-purine], 2.51 nM.

On to `CC1(Oc2ncnc3c2nc(-c2ccc(OC4CCNCC4)cc2Cl)n3Cc2ccccc2)CC1` [Example D33, 9-benzyl-8-(2-chloro-4-(piperidin-4-yloxy)phenyl)-6-(1-methylcyclopropoxy)-9H-purine], for which the IC50 was 2.51 nM. The figure for `CC1(Oc2ncnc3c2nc(-c2ccc(OC4CC5(CNC5)C4)cc2Cl)n3Cc2ccccc2)CC1` [Example D34, 8-(4-((2-azaspiro[3.3]heptan-6-yl)oxy)-2-chlorophenyl)-9-benzyl-6-(1-methylcyclopropoxy)-9H-purine] is 2.51 nM; for `CC1(Oc2ncnc3c2nc(-c2ccc(OC4CNC4)cc2Cl)n3Cc2ccccc2)CC1` [Example D35, 8-(4-(azetidin-3-yloxy)-2-chlorophenyl)-9-benzyl-6-(1-methylcyclopropoxy)-9H-purine] it is 3.98 nM.

Take `CN1CCN(CCOc2ccc(-c3nc4c(OC5(C)CC5)ncnc4n3Cc3ccccc3Cl)c(Cl)c2)CC1` [Example E1, 8-(2-chloro-4-(2-(4-methylpiperazin-1-yl)ethoxy)phenyl)-9-(2-chlorobenzyl)-6-(1-methylcyclopropoxy)-9H-purine]: the IC50 is 2.51 nM. The compound `CN1CCN(CCOc2ccc(-c3nc4c(OC5(C)CC5)ncnc4n3Cc3cccc(Cl)c3)c(Cl)c2)CC1` [Example E2, 8-(2-chloro-4-(2-(4-methylpiperazin-1-yl)ethoxy)phenyl)-9-(3-chlorobenzyl)-6-(1-methylcyclopropoxy)-9H-purine] gave an IC50 of 2.51 nM. With `CN1CCN(CCOc2ccc(-c3nc4c(OC5(C)CC5)ncnc4n3Cc3cccc(F)c3F)c(Cl)c2)CC1` [Example E3, 8-(2-chloro-4-(2-(4-methylpiperazin-1-yl)ethoxy)phenyl)-9-(2,3-difluorobenzyl)-6-(1-methylcyclopropoxy)-9H-purine] the figure was 2.51 nM. With `CN1CCN(CCOc2ccc(-c3nc4c(OC5(C)CC5)ncnc4n3CCc3ccccc3)c(Cl)c2)CC1` [Example E4, 8-(2-chloro-4-(2-(4-methylpiperazin-1-yl)ethoxy)phenyl)-6-(1-methylcyclopropoxy)-9-phenethyl-9H-purine] the figure was 5.01 nM; with `CN1CCN(CCOc2ccc(-c3nc4c(OC5(C)CC5)ncnc4n3Cc3ccccn3)c(Cl)c2)CC1` [Example E5, 8-(2-chloro-4-(2-(4-methylpiperazin-1-yl)ethoxy)phenyl)-6-(1-methylcyclopropoxy)-9-(pyridin-2-ylmethyl)-9H-purine], 3.98 nM. In the case of `CN1CCN(CCOc2ccc(-c3nc4c(OC5(C)CC5)ncnc4n3Cc3ncccn3)c(Cl)c2)CC1` [Example E6, 8-(2-chloro-4-(2-(4-methylpiperazin-1-yl)ethoxy)phenyl)-6-(1-methylcyclopropoxy)-9-(pyrimidin-2-ylmethyl)-9H-purine], the IC50 is 12.6 nM. With `CC1(Oc2ncnc3c2nc(-c2ccc(OCCN4CCNCC4)cc2Cl)n3Cc2ccccn2)CC1` [Example E7, 8-(2-chloro-4-(2-(piperazin-1-yl)ethoxy)phenyl)-6-(1-methylcyclopropoxy)-9-(pyridin-2-ylmethyl)-9H-purine] the figure was 5.01 nM; with `Cc1cc(N2CCC(N)CC2)ncc1-c1nc2c(OC3(C)CC3)ncnc2n1Cc1ccccc1` [Example F1, 1-(5-(9-benzyl-6-(1-methylcyclopropoxy)-9H-purin-8-yl)-4-methylpyridin-2-yl)piperidin-4-amine], 3.98 nM.
